Source: US12594246B2, “Formulations for enteric delivery of therapeutic agents” (CuriOralRx, LLC, priority 2016, dated 2026)

Details: 0.1 mL of 10 mg/mL insulin in 0.01N HCl added to 1 mL 2% EUDRAGIT L 100 in ethanol; no visible precipitation

## insulin
  Solubility of insulin in organic solvent at acidic pH: soluble even at 90% of organic solvent
